# scFv variants of Ab-95 (light chain) against a SARS-CoV-2 spike peptide

The measurements come from Engelhart et al. 2022 (doi:10.1038/s41597-022-01779-4) through the FLAb antibody collection.

The target is the same throughout: PDVDLGDISGINAS, from the HR2 region of SARS-CoV-2 spike.

Ab-95 is the parent antibody, in scFv form: VH, then three GGGGS repeats, then VL. The heavy chain is unchanged in all variants.
VH: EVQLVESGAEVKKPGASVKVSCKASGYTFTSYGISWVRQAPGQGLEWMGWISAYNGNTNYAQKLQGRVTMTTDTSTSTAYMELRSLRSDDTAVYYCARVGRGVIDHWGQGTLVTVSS
VL: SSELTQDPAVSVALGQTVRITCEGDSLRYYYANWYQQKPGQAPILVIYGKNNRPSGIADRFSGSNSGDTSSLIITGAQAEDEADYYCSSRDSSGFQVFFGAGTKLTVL

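AAYL52 was designed without a model: most single CDR substitutions and a random sample of double and triple ones. In AlphaSeq, yeast of one mating type display the scFv and yeast of the other type display the target. Binding brings cells together so that they mate, and sequencing counts the barcode pairs among the diploids. Scores were corrected for input abundance and mapped to Kd with protein pairs of known affinity run in the same pool. There are three technical replicates.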

Positions count from residue 1 of the parent VL; Y29R puts R in place of Y.
Affinities are written as log10 Kd with Kd in nM; a lower number is a better binder.
The mean shown is taken over the replicates in which the pair was detected.
A pair that was not seen in that replicate is written "ND"; this usually means weak binding, but a binder can also be missed.

changes	log10 Kd, replicates	mean, log10 nM
Y29R/V97M/F98D	4.77 ND ND	4.77
Y31Q/N33K/R90D	5.29 ND ND	5.29
A32G/R53C/F95C	4.30 2.92 4.03	3.75
G24Y/R28C/S88T	ND ND ND	ND
Y29H/A32T/S55K	3.24 2.74 2.50	2.83
Y29D/S92Q/V97D	ND ND 3.00	3.00
K50R/V97M	4.08 3.49 3.95	3.84
Y29P/F95W	3.35 2.79 4.40	3.51
L27Y/R90F/F98A	ND 4.42 ND	4.42
A32N/S88L/R90P	3.39 3.94 ND	3.67
D25C/N51H/S92D	3.65 ND 2.83	3.24
R53Q/S92M/S93I	3.82 3.46 ND	3.64
N51E/F95Y	2.34 2.32 2.07	2.24
Y29R/N33T/S92M	4.70 3.67 3.95	4.11
L27I/Y30V/S93Q	2.52 3.03 3.44	3.00
Y30P/G49N/K50I	2.43 1.71 1.97	2.04
E23Q/R28K/G94F	1.32 1.60 1.02	1.31
Y30M/G49T/N51P	3.93 ND ND	3.93
R90V/D91F/S92K	3.14 2.54 2.74	2.80
D25R/S89T/R90L	ND ND ND	ND
R28K/N33C/S89R	4.96 4.11 ND	4.53
D25A/S88C/Q96P	4.96 ND 2.80	3.88
Y29Q/R90T/D91L	2.03 2.05 1.90	1.99
G24W/R53F/S89I	5.23 ND ND	5.23
E23R/R53S/F95R	2.36 2.24 2.50	2.37
Y30K/K50E/R53H	1.28 1.59 0.82	1.23
R28F/Y30D/F95H	1.51 1.19 0.94	1.21
G24W/G49F/N52T	ND ND 3.65	3.65
S26P/D91N/F95M	ND 3.31 4.84	4.07
Y31S/A32P/F98A	1.87 1.83 1.29	1.66
D25T/N51P/R53Q	4.19 ND ND	4.19
S26I/A32N/S89L	ND ND ND	ND
R28G/A32E/D91A	ND ND 4.01	4.01
A32L/N33P/N51A	3.72 ND ND	3.72

A selection of 3 entries from above:

{"changes": "D25R/S89T/R90L", "log10 Kd, replicates": "ND ND ND", "mean, log10 nM": "ND"}
{"changes": "Y29P/F95W", "log10 Kd, replicates": "3.35 2.79 4.40", "mean, log10 nM": "3.51"}
{"changes": "R28G/A32E/D91A", "log10 Kd, replicates": "ND ND 4.01", "mean, log10 nM": "4.01"}

Background: pairings of library AAYL52 with three empty control strains gave a value in 28% of cases (median 3.91, 5th percentile 2.90). Values in that range, when seen in few replicates, are hard to tell from nonspecific mating.